This is a selection; strong and weak results do not stand in their true shares. The source made the active and inactive calls. Cut-off read from the data, not from the text of the source: active = normalized growth mostly below about 0.91 (no sharp cut-off); inconclusive = no clear call, values can overlap the other calls; inactive = mostly above about 0.92.
Assay: chemical genetic growth profiling, strain panel (AID 1159580);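 note: tested at 20 µM; growth read once vehicle control cultures reached saturation at 30 °C; 1 = growth at the plate median or of vehicle wells; lower values mean less growth of the strain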
Conditions: S. cerevisiae deletion strains, growth OD
[1] = locus YAL013W, strain DEP1, hits give low values
[2] = locus YAL040C, strain CLN3, hits give low values
[3] = locus YCL061C, strain MRC1 (second series), hits give low values
[4] = locus YDR150W, strain NUM1, hits give low values
[5] = locus YDR363W, strain ESC2, hits give low values
[6] = locus YER002W, strain NOP16, hits give low values
[7] = locus YGR078C, strain PAC10, hits give low values
[8] = locus YJR075W, strain HOC1, hits give low values
[9] = locus YMR307W, strain GAS1, hits give low values
[10] = locus YNL153C, strain GIM3, hits give low values
[11] = locus YNL175C, strain NOP13, hits give low values
[12] = locus YNL197C, strain WHI3, hits give low values
[13] = locus YNL224C, strain SQS1, hits give low values
[14] = locus YOR083W, strain WHI5 (second series), hits give low values
[15] = locus YPL241C, strain CIN2, hits give low values
[16] = locus YNL322C, strain KRE1, hits give low values
[17] = locus YMR263W, strain SAP30, hits give low values
[18] = locus YNL128W, strain TEP1, hits give low values

Measured: normalized growth

CN(C(=O)Cc1ccccc1)[C@@H]1CC[C@]2(CCCO2)C[C@H]1N1CCCC1
inactive: [1] 0.972 | [2] 0.99 | [3] 0.991 | [4] 0.991 | [5] 0.975 | [6] 0.989 | [7] 0.994 | [8] 0.979 | [9] 0.986 | [10] 0.995 | [11] 1 | [12] 0.976 | [13] 1 | [14] 0.992 | locus YPL055C, strain LGE1, hits give low values 0.984 | [15] 1

CN(C(=O)Cc1ccc(Cl)c(Cl)c1)[C@@H]1CC[C@]2(CCCO2)C[C@H]1N1CCCC1
inactive: [1] 0.991 | [3] 1 | [5] 1.02 | [6] 0.992 | [7] 1.01 | [9] 0.991 | [10] 1.01 | [11] 0.991 | [12] 1.02 | [13] 0.998 | [16] 1.01 | [14] 1 | [15] 1.01

CN(C(=O)Cc1ccc(Cl)c(Cl)c1)[C@@H]1CCCC[C@H]1N1CCCC1
inactive: [2] 1.06 | [3] 1.01 | [4] 0.999 | [5] 1.01 | [6] 1 | locus YGR229C, strain SMI1, hits give low values 1.03 | [8] 1.01 | [17] 1.01 | [9] 1 | [11] 1 | [12] 1 | [13] 1.01 | [14] 1.01 | [15] 1

CN(CCCl)Cc1cc(Cl)c(NC2=NCCN2)c(Cl)c1
inactive: [2] 0.984 | [5] 0.995 | [6] 0.98 | [7] 1.01 | [9] 0.991 | [11] 0.999 | [12] 0.972 | [13] 1 | [14] 0.982

CN(C(=O)Cc1ccc(Cl)c(Cl)c1)[C@H]1CCCC[C@@H]1N1CCCC1
inactive: [1] 1.03 | [2] 0.974 | [3] 0.978 | [4] 0.994 | [5] 1.02 | [6] 0.966 | [18] 1.02 | [11] 0.986 | [12] 0.956 | [13] 0.998 | [16] 1.02 | [14] 1.01 | [15] 0.99

CN(C(=O)Cc1ccc(Cl)c(Cl)c1)C1CCCCC1N1CCCC1 (stereo unspecified)
inactive: [1] 1.01 | [2] 0.987 | [3] 0.997 | [4] 0.993 | [5] 0.988 | [6] 1.01 | [7] 1.01 | [17] 0.995 | [9] 1.01 | [18] 1.02 | [11] 1.01 | [12] 1.04 | [13] 1.04 | [14] 0.994 | [15] 0.999

CN(C(=O)Cc1ccc(Cl)c(Cl)c1)[C@@H]1CCCC[C@@H]1N1CCCC1
inactive: [2] 1.01 | [3] 1 | [4] 0.993 | [5] 1.03 | [6] 1.01 | [17] 1 | [11] 1.01 | [12] 1.01 | [13] 1.02 | [14] 1.01 | [15] 0.994

Reference: PubChem BioAssay AID1159580 (chemical genetic matrix, 2015)
